scFv variants of Ab-14 (heavy chain) against a SARS-CoV-2 spike peptide

From the AlphaSeq antibody data of Li et al. 2023 (doi:10.1038/s41467-023-39022-2), copy in the FLAb collection.

Binding partner: SARS-CoV-2 spike HR2 peptide, sequence PDVDLGDISGINAS.

Ab-14 is the parent antibody, in scFv form: VH, then the linker GGGGSGGGGSGGGGS, then VL. The light chain is unchanged in all variants.
VH: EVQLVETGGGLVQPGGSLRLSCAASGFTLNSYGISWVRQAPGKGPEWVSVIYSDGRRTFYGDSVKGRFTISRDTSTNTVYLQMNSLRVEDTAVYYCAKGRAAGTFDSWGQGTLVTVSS
VL: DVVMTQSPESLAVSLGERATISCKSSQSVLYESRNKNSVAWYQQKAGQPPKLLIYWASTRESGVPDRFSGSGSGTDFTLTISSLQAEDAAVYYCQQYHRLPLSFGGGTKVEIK

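The starting antibody came from a phage panning campaign against this peptide. This is the validation round: designs drawn from the data on random variants, tested in the same kind of assay. Their group label is 14H_En_Gen (En: ensemble of fine-tuned language models; Gen: genetic algorithm). Affinity was read by AlphaSeq, a pooled yeast mating assay with surface-displayed partners. The frequency of each diploid, read from paired DNA barcodes, reflects how well the two displayed proteins bind. A regression on co-assayed BCL2-family reference pairs converts the normalised counts of each replicate to an apparent Kd. Mating was done six times.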

Variants are written as CDR1, CDR2 and CDR3 of the heavy chain (limits as in the source). Parent: GFTLNSYGIS, VIYSDGRRTFYGDSVK, GRAAGTFDS. Numbers give log10(Kd / nM), so 0 is 1 nM and 3 is 1 µM. Smaller is tighter. An entry "ND" has no value in the source: the pair was not observed among the diploids in that replicate. This suggests poor binding but is not conclusive. The parent sequence was in this pool as ten entries: three were never detected, three once, and four in most replicates, with averages from 0.34 to 2.37. A sequence measured in both rounds can read differently, since the two assays cover different ranges. The authors averaged sequences with at least three values out of six and counted those with two or fewer as poor binders. Background: pairings of all heavy chain designs with three empty control strains gave a value in 1% of cases (median 2.08, 5th percentile 0.84). Values in that range, when seen in few replicates, are hard to tell from nonspecific mating. Also given: how often the same scFv was detected with the empty control strains, with their mean in brackets.

| # | CDR-H1 | CDR-H2 | CDR-H3 | log10 Kd (nM) by replicate | signal with controls |
|---|---|---|---|---|---|
| 1 | GFDLNEYGIS | VIYADGVRTAYIDSVK | GTNAGTFDV | -0.66 -0.55 -0.62 -0.96 -0.81 -0.79 | 0/18 |
| 2 | GFDLDEYGIS | VIYADGQRTAYADDVK | GENAGTFDL | 0.81 0.70 0.90 0.53 1.20 0.41 | 0/18 |
| 3 | GFDLNEYGIS | VIYADGMRTAYADKVK | GNEAGTFDV | -0.53 -0.59 -0.70 -0.64 -0.51 -0.58 | 1/18 (3.89) |
| 4 | GFDLDEYGIS | VIYADGMRTAYSDNVK | GNVAGTFDL | -0.27 -0.37 0.15 -0.47 0.01 -0.01 | 0/18 |
| 5 | GFDLNEYGIS | VIYADGVRTAYADAVK | GNNAGTFDV | 0.32 0.00 -0.46 -0.74 -0.88 -0.61 | 0/18 |
| 6 | GFDLDEYGIS | VIYADGQRTAYTDSVK | GETAGTFDV | 0.38 -0.43 -0.09 0.37 -0.17 -0.17 | 0/18 |
| 7 | GFDLDEYGIS | VIYADGMRTAYTDSVK | GQVAGTFDV | -0.80 -0.76 -0.44 -1.74 -0.87 -0.83 | 0/18 |
| 8 | GFDLNEYGIS | VIYADGMRTFYADDVK | GENAGTFDI | -0.33 -0.33 -0.49 -0.85 -0.58 -0.50 | 2/18 (1.69) |
| 9 | GFDLNEYGIS | VIYADGVRTAYADDVK | GQNAGTFDM | -0.39 -0.34 -0.56 -0.70 -0.31 -0.29 | 3/18 (2.16) |
| 10 | GFDLNEYGIS | VIYADGRRTAYADSVK | GSNAGTFDQ | -0.81 -0.95 -1.11 -0.96 -1.07 -0.85 | 0/18 |
| 11 | GFDLNEYGIS | VIYADGRRTYYADSVK | GQNAGTFDV | -0.45 -0.45 -0.59 -0.55 -0.27 -0.28 | 0/18 |
| 12 | GFDLNEYGIS | VIYADGVRTQYADSVK | GENAGTFDI | 0.49 2.45 0.53 0.15 0.29 0.80 | 0/18 |
| 13 | GFDLNEYGIS | VIYADGVRTAYSDSVK | GNQAGTFDL | -0.86 -1.16 -1.05 -0.71 -1.13 -1.36 | 0/18 |
| 14 | GFDLNEYGIS | VIYADGMRTAYADSVK | GNNAGTFDA | 0.65 0.08 0.80 -0.48 0.15 0.39 | 0/18 |
| 15 | GFDLNEYGIS | VIYADGKRTAYADSVK | GKVAGTFDV | -0.73 -0.88 -0.55 -0.84 -1.12 -0.71 | 0/18 |
| 16 | GFDLNEYGIS | VIYADGKRTAYADNVK | GQVAGTFDV | -0.52 -0.46 -0.83 -0.66 -0.85 -0.34 | 0/18 |
| 17 | GFDLNEYGIS | VIYADGLRTAYADSVK | GEVAGTFDT | ND ND ND 1.93 ND ND | 0/18 |
| 18 | GFDLNEYGIS | VIYADGMRTFYTDSVK | GNNAGTFDV | -0.79 -0.46 -0.85 -0.71 -0.87 -0.42 | 0/18 |
| 19 | GFDLNEYGIS | VIYADGKRTAYIDSVK | GEVAGTFDL | 0.81 -0.14 0.30 0.22 0.16 -0.08 | 0/18 |
| 20 | GFDLNEYGIS | VIYADGMRTAYSDSVK | GQNAGTFDL | -0.04 -0.15 -0.19 -0.11 -0.06 0.07 | 2/18 (2.38) |
| 21 | GFDLNEYGIS | VIYADGKRTAYQDSVK | GNNAGTFDV | -0.19 -0.27 -0.32 -0.42 -0.20 0.09 | 0/18 |
| 22 | GFDLNEYGIS | VIYADGQRTFYADSVK | GNVAGTFDV | -0.58 -0.47 -0.85 -0.85 -0.76 -0.50 | 1/18 (2.97) |
| 23 | GFDLNEYGIS | VIYADGMRTFYSDSVK | GETAGTFDV | 0.60 0.51 0.83 0.48 0.58 0.73 | 0/18 |
| 24 | GFDLNEYGIS | VIYADGKRTFYADSVK | GNVAGTFDV | -0.01 -0.16 -0.33 -0.25 0.02 -0.02 | 0/18 |
| 25 | GFDLNEYGIS | VIYADGMRSVYADSVK | GNNAGTFDV | ND 0.98 1.47 0.41 0.58 0.08 | 0/18 |
| 26 | GFDLNEYGIS | VIYADGVRTAYADSVK | GNNAGTFDT | -0.11 -0.25 -0.38 -0.36 0.03 -0.09 | 0/18 |
| 27 | GFDLNEYGIS | VIYADGMRTFYADSVK | GSNAGTFDI | -0.34 -0.55 -0.68 -0.94 -0.81 -0.26 | 0/18 |
| 28 | GFDLNEYGIS | VIYADGKRTAYAESVK | GNVAGTFDL | -0.24 0.35 0.04 -0.35 0.64 -0.37 | 0/18 |
| 29 | GFDLEEYGIS | VIYADGMRTAYTDSVK | GENAGTFDV | 0.25 -0.52 0.36 -0.45 0.40 -0.23 | 0/18 |
| 30 | GFDLNEYGIS | VIYADGMRTAYTDSVK | GHNAGTFDV | -0.48 -0.38 -0.80 -0.51 -0.75 -0.29 | 0/18 |
| 31 | GFDLNEYGIS | VIYADGKRTYYADDVK | GNVAGTFDI | -0.40 1.59 -0.50 -0.62 0.01 0.42 | 0/18 |
| 32 | GFDLNEYGIS | VIYADGMRTYYADSVK | GNNAGTFDM | ND ND ND ND ND ND | 0/18 |
| 33 | GFDLNEYGIS | VIYADGKRTVYADSVK | GNQAGTFDI | -0.67 -0.37 -0.78 -0.38 -0.56 -0.58 | 0/18 |
| 34 | GFDLDEYGIS | VIYADGQRTAYSDSVK | GNVAGTFDV | -0.05 -0.45 -0.29 -0.57 -0.38 -0.43 | 1/18 (2.62) |
| 35 | GFDLNEYGIS | VIYADGMRTAYVDSVK | GNTAGTFDI | -0.44 -0.18 -0.33 -0.58 -0.56 -0.48 | 0/18 |
| 36 | GFDLNEYGIS | VIYADGVRTAYADSVK | GNEAGTFDL | -0.49 -0.72 -0.35 -0.63 -0.76 -0.52 | 0/18 |
| 37 | GFDLDEYGIS | VIYADGQRTAYTDSVK | GENAGTFDL | 0.05 0.48 -0.13 0.04 0.16 0.30 | 0/18 |
| 38 | GFDLNEYGIS | VIYADGQRTAYADNVK | GENAGTFDV | -0.32 -0.33 -0.42 -0.49 -0.11 -0.07 | 0/18 |
| 39 | GFDLNEYGIS | VIYADGLRTAYADSVK | GETAGTFDV | -0.37 -0.16 -0.53 -0.50 -0.65 -0.34 | 0/18 |
| 40 | GFDLNEYGIS | VIYADGRRTAYADSVK | GNNAGTFDM | 0.29 0.23 0.09 -0.23 0.00 1.39 | 0/18 |
| 41 | GFDLNEYGIS | VIYADGLRTAYADDVK | GENAGTFDV | 0.08 -0.02 -0.22 -0.57 -0.93 0.02 | 0/18 |
| 42 | GFDLNEYGIS | VIYADGVRTAYADNVK | GEVAGTFDT | -0.16 -0.53 -0.25 -0.66 -0.71 -0.61 | 0/18 |
| 43 | GFDLDEYGIS | VIYADGKRTAYADSVK | GNQAGTFDM | -0.53 -0.25 -0.58 -0.74 -0.58 -0.58 | 0/18 |
| 44 | GFDLNEYGIS | VIYADGRRTAYADSVK | GHNAGTFDV | -0.82 -0.83 -0.64 -0.93 -0.68 -0.81 | 0/18 |
| 45 | GFDLNEYGIS | VIYADGVRQAYADSVK | GENAGTFDL | 0.50 0.92 ND 1.95 1.25 1.95 | 0/18 |
| 46 | GFDLNEYGIS | VIYADGMRTAYSDKVK | GENAGTFDI | -0.07 -0.15 -0.22 -0.43 -0.33 0.03 | 0/18 |
| 47 | GFDLNEYGIS | VIYADGMRTFYADSVK | GNVAGTFDI | 0.27 1.35 1.05 -0.12 0.34 ND | 0/18 |
| 48 | GFDLNEYGIS | VIYADGMRTFYADDVK | GNVAGTFDQ | 0.55 0.71 0.23 0.47 0.51 0.63 | 0/18 |
| 49 | GFDLNEYGIS | VIYADGKRTAYSDSVK | GKNAGTFDV | -0.50 -0.32 -0.35 -0.64 -0.42 -0.25 | 0/18 |
| 50 | GFDLNEYGIS | VIYADGMRTAYADDVK | GNIAGTFDV | -0.05 -0.55 -0.26 -0.46 -0.58 -0.36 | 0/18 |

Excerpt, the first 5 entries:

| CDR-H1 | CDR-H2 | CDR-H3 | log10 Kd (nM) by replicate | signal with controls |
|---|---|---|---|---|
| GFDLNEYGIS | VIYADGVRTAYIDSVK | GTNAGTFDV | -0.66 -0.55 -0.62 -0.96 -0.81 -0.79 | 0/18 |
| GFDLDEYGIS | VIYADGQRTAYADDVK | GENAGTFDL | 0.81 0.70 0.90 0.53 1.20 0.41 | 0/18 |
| GFDLNEYGIS | VIYADGMRTAYADKVK | GNEAGTFDV | -0.53 -0.59 -0.70 -0.64 -0.51 -0.58 | 1/18 (3.89) |
| GFDLDEYGIS | VIYADGMRTAYSDNVK | GNVAGTFDL | -0.27 -0.37 0.15 -0.47 0.01 -0.01 | 0/18 |
| GFDLNEYGIS | VIYADGVRTAYADAVK | GNNAGTFDV | 0.32 0.00 -0.46 -0.74 -0.88 -0.61 | 0/18 |